Consider 7 compounds from PubChem BioAssay (Tox21).

The chains behind the UniProt entries cited, without tags or fusion partners. Where a name states a change or a piece, a line headed by the entry shows the natural chain unless it says otherwise.
UniProt P03372, whole entry, looked up: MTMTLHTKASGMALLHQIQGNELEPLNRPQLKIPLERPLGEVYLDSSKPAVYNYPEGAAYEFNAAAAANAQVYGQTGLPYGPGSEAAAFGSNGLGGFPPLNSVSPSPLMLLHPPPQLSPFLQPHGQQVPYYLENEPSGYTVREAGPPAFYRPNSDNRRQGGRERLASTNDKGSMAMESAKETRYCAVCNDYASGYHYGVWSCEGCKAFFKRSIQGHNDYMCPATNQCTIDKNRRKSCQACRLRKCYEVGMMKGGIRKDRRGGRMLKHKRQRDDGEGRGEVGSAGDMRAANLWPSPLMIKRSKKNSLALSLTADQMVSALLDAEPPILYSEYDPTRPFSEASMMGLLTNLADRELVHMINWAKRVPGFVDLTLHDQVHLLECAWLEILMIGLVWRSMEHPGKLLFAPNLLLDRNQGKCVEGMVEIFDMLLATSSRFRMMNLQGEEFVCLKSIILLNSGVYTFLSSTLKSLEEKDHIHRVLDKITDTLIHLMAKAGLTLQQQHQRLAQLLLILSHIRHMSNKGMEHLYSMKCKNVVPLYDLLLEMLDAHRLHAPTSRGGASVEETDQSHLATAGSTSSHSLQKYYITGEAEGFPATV
UniProt Q92731, whole entry, looked up: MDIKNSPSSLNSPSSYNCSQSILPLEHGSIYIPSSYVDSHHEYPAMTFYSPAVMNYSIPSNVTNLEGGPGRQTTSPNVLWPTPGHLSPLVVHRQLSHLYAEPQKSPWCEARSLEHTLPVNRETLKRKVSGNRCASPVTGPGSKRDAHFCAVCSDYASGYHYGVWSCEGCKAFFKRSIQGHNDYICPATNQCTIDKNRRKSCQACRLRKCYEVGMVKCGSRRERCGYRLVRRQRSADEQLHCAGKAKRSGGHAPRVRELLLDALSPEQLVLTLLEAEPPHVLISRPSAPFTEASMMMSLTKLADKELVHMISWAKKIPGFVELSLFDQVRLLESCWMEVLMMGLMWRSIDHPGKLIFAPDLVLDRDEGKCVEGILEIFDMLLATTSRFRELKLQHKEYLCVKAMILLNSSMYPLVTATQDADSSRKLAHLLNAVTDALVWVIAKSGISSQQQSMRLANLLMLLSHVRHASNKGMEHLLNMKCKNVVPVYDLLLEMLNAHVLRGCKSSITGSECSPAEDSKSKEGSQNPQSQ
UniProt P16473, whole entry, looked up: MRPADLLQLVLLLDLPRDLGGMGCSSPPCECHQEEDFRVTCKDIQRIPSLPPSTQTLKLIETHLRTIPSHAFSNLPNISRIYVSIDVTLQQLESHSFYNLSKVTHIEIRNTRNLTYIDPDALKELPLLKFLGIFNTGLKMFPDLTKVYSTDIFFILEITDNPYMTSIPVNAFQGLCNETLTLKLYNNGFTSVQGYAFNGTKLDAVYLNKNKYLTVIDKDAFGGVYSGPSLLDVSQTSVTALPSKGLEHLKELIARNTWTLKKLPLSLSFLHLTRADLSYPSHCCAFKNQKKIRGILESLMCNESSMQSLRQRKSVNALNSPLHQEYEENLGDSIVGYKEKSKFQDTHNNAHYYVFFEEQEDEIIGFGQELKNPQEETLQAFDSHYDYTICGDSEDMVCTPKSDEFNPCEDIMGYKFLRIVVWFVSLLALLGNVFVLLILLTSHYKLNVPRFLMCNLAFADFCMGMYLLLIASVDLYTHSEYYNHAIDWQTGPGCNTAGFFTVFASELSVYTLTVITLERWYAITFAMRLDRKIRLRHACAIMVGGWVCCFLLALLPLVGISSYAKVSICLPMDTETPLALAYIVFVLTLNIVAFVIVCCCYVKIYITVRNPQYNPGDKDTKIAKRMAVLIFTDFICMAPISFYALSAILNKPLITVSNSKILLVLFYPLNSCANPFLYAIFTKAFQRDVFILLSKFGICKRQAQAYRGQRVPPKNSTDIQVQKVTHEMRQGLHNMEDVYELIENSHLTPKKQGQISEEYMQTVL
UniProt P10275: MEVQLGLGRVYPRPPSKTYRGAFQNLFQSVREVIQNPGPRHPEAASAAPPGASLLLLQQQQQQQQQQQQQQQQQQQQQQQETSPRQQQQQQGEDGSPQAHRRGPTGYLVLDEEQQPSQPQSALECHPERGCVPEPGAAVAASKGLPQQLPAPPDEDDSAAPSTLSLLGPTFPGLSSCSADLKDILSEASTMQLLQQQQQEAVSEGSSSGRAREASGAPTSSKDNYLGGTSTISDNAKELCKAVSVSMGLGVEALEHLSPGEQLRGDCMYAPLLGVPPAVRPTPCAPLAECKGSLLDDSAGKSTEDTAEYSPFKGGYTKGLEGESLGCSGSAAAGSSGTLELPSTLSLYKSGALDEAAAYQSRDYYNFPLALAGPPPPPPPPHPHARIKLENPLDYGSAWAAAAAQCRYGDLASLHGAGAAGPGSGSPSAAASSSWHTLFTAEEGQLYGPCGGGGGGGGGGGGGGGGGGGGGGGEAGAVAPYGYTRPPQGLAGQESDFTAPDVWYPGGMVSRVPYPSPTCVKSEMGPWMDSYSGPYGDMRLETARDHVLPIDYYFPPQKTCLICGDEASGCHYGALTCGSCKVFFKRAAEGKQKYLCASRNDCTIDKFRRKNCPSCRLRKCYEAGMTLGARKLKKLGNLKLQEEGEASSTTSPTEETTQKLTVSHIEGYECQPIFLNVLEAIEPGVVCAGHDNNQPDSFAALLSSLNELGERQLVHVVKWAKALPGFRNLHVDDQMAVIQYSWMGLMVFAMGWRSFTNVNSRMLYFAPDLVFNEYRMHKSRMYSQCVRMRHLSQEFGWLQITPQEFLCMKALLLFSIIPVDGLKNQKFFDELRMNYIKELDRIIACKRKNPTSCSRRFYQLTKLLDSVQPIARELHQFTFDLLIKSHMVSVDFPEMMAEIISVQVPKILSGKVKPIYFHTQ

This is a selection; strong and weak results do not stand in their true shares. Inconclusive results are not listed. Activity calls are given as the source filed them. Unless noted, calls come from the whole dose curve; as a rule, active = well fitted curve in the direction sought with a large enough effect in the repeat runs; inconclusive = weak or mixed curves; inactive = no such curve, though single readings can be large; an effect the other way counts as inactive or inconclusive.

Experiment [1] in a line: A CellTox Green Cytotoxicity Assay to monitor cytotoxicity in HepG2 cells - 32 hour (AID 1224883). Note: nearly all actives have a fitted effect of over 50% in size. Note: potency is the fitted concentration of half-maximal effect. In outline: (§1)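 Cytotoxicity was tracked as dead-cell DNA fluorescence in HepG2 cells treated with test compounds at 37 C; each time-point value comes from one kinetic series spanning 0, 8, 16, 24, 32 and 40 h.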
The nature of experiment [2]: A CellTox Green Cytotoxicity Assay to monitor cytotoxicity in HEK293 cells - 8 hour (AID 1224884). Note: nearly all actives have a fitted effect of over 35% in size. In outline: (§2)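 Real-time, in one plate: 600 HEK293 cells/well with dead-cell DNA dye, pinned compound after 5 h, 37 C incubation over 40 h; viable cells give no appreciable fluorescence.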
Experiment [3] in a line: qHTS RealTime-Glo MT Cell Viability Assay in HepG2 cells - 16 hour (AID 1224885). Note: nearly all actives have a fitted effect of over 50% in size. In outline:
(§3)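 Compound treatment began 5 h after plating HepG2 cells (600/well) with NanoLuc luciferase and prosubstrate. Plates stayed at 37 C for 40 h; luminescence was captured at six time points, 0 h through 40 h.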
Background: Quantitative high-throughput screening tests each substance at several concentrations.

Experiment [4] is described as follows: qHTS RealTime-Glo MT Cell Viability Assay in HEK293 cells - 24 hour (AID 1224886). Note: top concentration of the series differs between compounds; nearly all actives have a fitted effect of over 50% in size. Put shortly: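 Quantitative high-throughput screen of the Tox21 10K library in HEK293: cells and RealTime-Glo reagents plated together, compound added at 5 h, luminescence monitored through 40 h at 37 C.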
Experiment [5] in a line: qHTS RealTime-Glo MT Cell Viability Assay in HEK293 cells - 8 hour (AID 1224887). Note: top concentration of the series differs between compounds; nearly all actives have a fitted effect of over 50% in size. Put shortly:
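Kinetic, non-lysing viability readout. Seed HEK293 (600/well) with reagent, incubate 5 h at 37 C/5% CO2, pin 23 nL compound in DMSO, incubate at 37 C, read luminescence at 0, 8, 16, 24, 32, 40 h.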

Experiment [6] in a line: A CellTox Green Cytotoxicity Assay to monitor cytotoxicity in HEK293 cells - 16 hour (AID 1224888). Note: nearly all actives have a fitted effect of over 35% in size. In outline: as §2
Experiment [7] is described as follows: qHTS RealTime-Glo MT Cell Viability Assay in HepG2 cells - 0 hour (AID 1224889). Note: nearly all actives have a fitted effect of over 50% in size. Conditions: RealTime-Glo luminescence; at 76.8 µM (top of the series) unless noted. In outline: as §3
Experiment [8] in a line: A CellTox Green Cytotoxicity Assay to monitor cytotoxicity in HepG2 cells - 8 hour (AID 1224890). Note: nearly all actives have a fitted effect of over 45% in size. In outline: as §1
In experiment [9] the target is Estrogen receptor (Homo sapiens) (UniProt P03372). Description: qHTS assay to identify small molecule antagonists of the estrogen receptor alpha (ER-alpha) signaling pathway using the BG1 cell line in the presence of 0.1 nM 17-beta-estradiol (AID 1259244). Note: nearly all actives have a fitted effect of over 50% in size. Conditions: VM7Luc4E2 (BG1) ERE-luciferase, antagonist mode, 0.1 nM E2, 22 h; at 92.4 µM (top of the series) unless noted.

A short description of experiment [10]: qHTS assay to identify small molecule HDAC inhibitors (AID 1259364).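 Note: wild-type HCT-116 cells with endogenous class I/II HDAC activity; top concentration of the series differs between compounds; nearly all actives have a fitted effect of over 45% in size.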 Conditions: HCT-116 HDAC-Glo I/II luminescence, 2 h; at 92.4 µM (top of the series) unless noted. Put shortly: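 HCT-116 wt cells, 1,500/well, overnight attach. Compounds (DMSO) 2 h, 37 °C. HDAC-Glo I/II, 30 min RT. Luminescence.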
The nature of experiment [11]: qHTS assay to identify small molecule agonists of the sonic hedgehog signaling (Shh) pathway - cell viability counter screen (AID 1259366). Note: nearly all actives have a fitted effect of over 50% in size. In outline:
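NIH/3T3-derived Gli1-Luc reporter cells, 2,000 per well, received compound after 4 h and were treated about 23 h at 37C. Viability measured in the same wells by CellTiter-Fluor fluorescence after 1 h.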

The nature of experiment [12]: qHTS assay to identify small molecule agonists of the sonic hedgehog signaling (Shh) pathway (AID 1259368; calls by dose curve;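 note: NIH/3T3-derived 3T3Gli1-Luc cells carrying a stable Gli1-driven firefly luciferase reporter; nearly all actives have a fitted effect of over 15% in size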). The settings on record: NIH/3T3 Gli1-Luc reporter, luciferase, 24 h, active compounds read high; at 92.4 µM (top of the series) unless noted. Put shortly: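 Following a 24 hr incubation with DMSO-dissolved compounds at 37 C, 5% CO2, Gli1-Luc NIH/3T3-derived cells received luciferase reagent for 30 min at room temperature prior to luminescence measurement.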

In experiment [13] the target is Estrogen receptor beta (Homo sapiens) (UniProt Q92731). Description: qHTS assay to identify small molecule agonists of the estrogen receptor beta (ER-beta) signaling pathway (AID 1259377; active = well fitted activation curve with a large enough effect in the signal ratio in the repeat runs, not every such curve was filed as active; the % refers to the signal ratio). The settings on record: ER-beta-UAS-bla HEK293T, beta-lactamase FRET ratio, 16 h; at 92.4 µM (top of the series) unless noted.
Experiment [14] is described as follows: qHTS assay to identify small molecule agonists of the androgen receptor (AR) signaling pathway in the presence of an antagonist - cell viability counter screen (AID 1259379).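 Note: MDA-kb2 human breast cancer cells carrying an MMTV luciferase reporter; nearly all actives have a fitted effect of over 25% in size.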 Put shortly: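 Each compound was tested at 15 concentrations on MDA-kb2 cells in the presence of 3.0uM nilutamide. Viability was measured by CellTiter-Fluor fluorescence after a 16 hr incubation at 37C in a CO2-free atmosphere.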

The target of experiment [15] is Estrogen receptor (Homo sapiens) (UniProt P03372). Description: qHTS assay to identify small molecule agonists of the estrogen receptor alpha (ER-alpha) signaling pathway in the presence of an antagonist (AID 1259383; calls by dose curve; note: top concentration of the series differs between compounds; nearly all actives have a fitted effect of over 15% in size). The settings on record: VM7Luc4E2 cells, ERE-luciferase, +ICI-182,780, 22 h; at 92.4 µM (top of the series) unless noted.
Experiment [16] in a line: qHTS assay to identify small molecule agonists or antagonists of the thyroid stimulating hormone receptor (TSHR) signaling pathway - wild type cell line counter screen (AID 1259384; calls by dose curve). Conditions: HEK293 wild type, cAMP HTRF counter-screen, active compounds read high; at 92.4 µM (top of the series) unless noted. Put shortly: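 Wild-type Hek293 cells, 800/well, 18 h at 37C, then compound with Ro20-1724 for 30 min RT. cAMP by HTRF (cAMP-d2/anti-cAMP cryptate), 1 h RT, fluorescence read. 15 concentrations, triplicates.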

For experiment [17], the target named is Thyrotropin receptor (Homo sapiens) (UniProt P16473). Description: qHTS assay to identify small molecule antagonists of the thyroid stimulating hormone receptor (TSHR) signaling pathway (AID 1259385; calls by dose curve; note: nearly all actives have a fitted effect of over 20% in size). Conditions: TSHR-HEK293 cAMP HTRF, TSH-stimulated antagonist mode; at 92.4 µM (top of the series) unless noted.
The target of experiment [18] is Androgen receptor (Homo sapiens) (UniProt P10275). Description: qHTS assay to identify small molecule antagonists of the androgen receptor (AR) signaling pathway using the MDA cell line in the presence of 0.5 nM R1881 (AID 1259243). Note: nearly all actives have a fitted effect of over 50% in size.
In experiment [19] the target is Estrogen receptor beta (Homo sapiens) (UniProt Q92731). Description: qHTS assay to identify small molecule antagonists of the estrogen receptor beta (ER-beta) signaling pathway (AID 1259378; active = well fitted inhibition curve with a large enough effect in the signal ratio in the repeat runs, not every such curve was filed as active; the % refers to the signal ratio). Conditions: ER-beta-UAS-bla HEK293T, beta-lactamase FRET ratio, 16 h. Put shortly: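 ER-beta-UAS-bla HEK293T cells in 2% charcoal-stripped FBS medium treated with compound plus 1nM final 17-beta-estradiol for 16 hr at 37C. Beta-lactamase reporter read by FRET substrate fluorescence after 2 hours at room temperature.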

Experiment [20] concerns the target Androgen receptor (Homo sapiens) (UniProt P10275). Description: qHTS assay to identify small molecule agonists of the androgen receptor (AR) signaling pathway in the presence of an antagonist (AID 1259381; calls by dose curve; note: nearly all actives have a fitted effect of over 15% in size). The settings on record: MDA-kb2 MMTV-luciferase, AR agonist + nilutamide, 16 h.
% is set by controls: 0 for no effect and ±100 for the full control effect.

Take `CC(C)CCCCCCCOP(OCCCCCCCC(C)C)Oc1ccccc1`: in experiment [1], the Potency is active: 61.6 µM. For the same compound, the Potency result in experiment [2], in experiment [3], in experiment [4], in experiment [5], in experiment [6] and in [8] was “inactive” throughout. Moreover, the Potency result in experiment [11] and in experiment [14] was “inactive” in each case. The activity change, negative = cytotoxicity in [7] is inactive: -3.84%. Moreover, the activity change, negative = inhibition was inactive: -10.4% in experiment [9] and inactive: 2.29% in [10]. Moreover, the activity change in experiment [12] is inactive: 0.798%. The figures for the activation in [13] and in experiment [15] were inactive: -2.12% and inactive: 1.01%, respectively.
`CC(C)OP(=S)(OC(C)C)SCCNS(=O)(=O)c1ccccc1`: the Potency entry in experiment [1], in [2], in [3], in experiment [6], in experiment [8] and in experiment [11] was “inactive” in each case. Also, the Potency result in experiment [14] is “inactive”. In addition, the activity change, negative = inhibition in experiment [10] is inactive: 1.95%; in experiment [17], inactive: -0.541%. Also, in experiment [12], the activity change is inactive: -3.37%. The activation in experiment [13] was inactive: -4.32%. Besides, the cAMP activity change in [16] was inactive: 0.306%.
Consider `CN(C(=O)Cc1ccc(Cl)c(Cl)c1)[C@H]1CC[C@@]2(CCCO2)C[C@@H]1N1CCCC1`, for which the Potency entry in experiment [1], in experiment [2], in experiment [3], in experiment [4], in experiment [5] and in experiment [6] was “inactive” throughout. Further, the Potency result in experiment [8], in [18], in experiment [11] and in experiment [14] was “inactive” in each case. In experiment [7], the activity change, negative = cytotoxicity was inactive: 11.1% [at 35.3 µM]. Further, the activity change, negative = inhibition was inactive: 0.487% [at 42.5 µM] in experiment [9] and inactive: 8.73% [at 42.5 µM] in experiment [10]. For the same compound, the activity change in experiment [12] is inactive: -2.07% [at 42.5 µM]. For the same compound, the values for the activation in experiment [13], in [20] (at 42.5 µM (top of the series)) and in experiment [15] were inactive: -1.3% [at 42.5 µM], inactive: 3.02% and inactive: -2.65% [at 42.5 µM], respectively. In addition, in experiment [19] (at 42.5 µM (top of the series)), the activity, negative = inhibition is inactive: -9.16%.
Consider `O=C(Cl)Oc1ccccc1`, for which the Potency result in experiment [1], in experiment [2], in [3], in experiment [4], in experiment [5] and in [6] was “inactive” throughout. Also, the Potency entry in [8], in [18], in [11] and in [14] was “inactive” in each case. In addition, the activity change, negative = cytotoxicity in [7] is inactive: -6.27%. The activity change, negative = inhibition in experiment [9] is inactive: -4.79%; in experiment [10], inactive: -0.108%; in experiment [17], inactive: -0.463%. Moreover, the activity change in [12] is inactive: -1.01%. The activation in experiment [20] (at 92.4 µM (top of the series)) is inactive: 0.843%; in experiment [15] it was inactive: 0.181%. In addition, the cAMP activity change in [16] is inactive: 2.78%.
Consider `CN(C(=O)Cc1ccccc1)[C@H]1CC[C@@]2(CCCO2)C[C@@H]1N1CCCC1`, for which the Potency entry in experiment [1], in [2], in experiment [3], in experiment [4], in experiment [5] and in [6] was “inactive” throughout. Besides, the Potency entry in experiment [8], in [18] and in experiment [14] was “inactive” throughout. Besides, the activity change, negative = cytotoxicity in experiment [7] is inactive: 3.96% [at 35.3 µM]. For the same compound, the activity change, negative = inhibition in experiment [9] was inactive: 2.34% [at 42.5 µM]; in experiment [10], inactive: 16.4% [at 42.5 µM]; in experiment [17] it was inactive: 2.06% [at 42.5 µM]. The activity change in experiment [12] is inactive: -0.423% [at 42.5 µM]. Besides, the activation was inactive: 8.95% [at 42.5 µM] in experiment [13], inactive: 0.139% in experiment [20] (at 42.5 µM (top of the series)) and inactive: -0.0254% [at 42.5 µM] in experiment [15]. The activity, negative = inhibition in experiment [19] (at 42.5 µM (top of the series)) is inactive: -10.2%. The cAMP activity change in [16] was inactive: -1.01% [at 42.5 µM].
For `CCOC(=O)Cl`, the Potency result in experiment [2], in experiment [3], in [4], in experiment [5], in experiment [6] and in experiment [8] was “inactive” throughout. In addition, the Potency result in experiment [11] and in [14] was “inactive” each time. For the same compound, in experiment [7], the activity change, negative = cytotoxicity is inactive: -3.11%. In addition, the activity change, negative = inhibition is inactive: 27.3% in experiment [9] and inactive: 3.58% in experiment [10]. Besides, in experiment [12], the activity change is inactive: 2.83%. For the same compound, the activation in [13] was inactive: -2.53%; in [15] it was inactive: 0.23%. Further, the activity, negative = inhibition in experiment [19] (at 92.4 µM (top of the series)) is inactive: 7.49%. Also, the cAMP activity change in experiment [16] was inactive: 5.11%.
Take `O=P(Cl)(Oc1ccccc1)Oc1ccccc1`: the Potency entry in experiment [1], in experiment [2], in [3], in experiment [4], in [5] and in [6] was “inactive” throughout. For the same compound, the Potency entry in experiment [8], in experiment [11] and in experiment [14] was “inactive” in each case. Besides, the activity change, negative = cytotoxicity in [7] is inactive: 0.865%. For the same compound, the activity change, negative = inhibition is inactive: -15.7% in [9], inactive: 7.22% in experiment [10] and inactive: 1.23% in [17]. Further, the activity change in [12] was inactive: 0.332%. Also, the results for the activation in experiment [13] and in experiment [15] were inactive: -0.229% and inactive: -2.48%, respectively. In addition, in experiment [19] (at 92.4 µM (top of the series)), the activity, negative = inhibition was inactive: 1.95%. The cAMP activity change in experiment [16] is inactive: 5.18%.
